These are literature values, as cited in patent US9163240B2, “SR-BI mutation as a predictor of low progesterone levels and poor fetal viability during pregnancy” (The Johns Hopkins University, priority 2009, dated 2015).

Series [1] has as its system SR-BI RNA. Conditions: 24 h after stimulation by hCG; cited from earlier work.
Series [2] concerns LDL receptor. Conditions: early time period after hCG stimulation; cited from earlier work.

Take hCG: human chorionic gonadotropin (hCG): the “SR-BI RNA levels increase” value in series [1] was about 30 fold. Further, the LDL receptor expression entry in series [2] was “initially increased but then decreased to low basal levels”.
